Biological target: T1, Flag-tagged Pds5b-Ser1161,1166Ala (2A), untreated or exposed to Cdk1/2-cyclin A2 (human, UniProt Q9NTI5 1-1447, Ser1161,1166Ala | Ser1161,1166Ala)
T1 sequence: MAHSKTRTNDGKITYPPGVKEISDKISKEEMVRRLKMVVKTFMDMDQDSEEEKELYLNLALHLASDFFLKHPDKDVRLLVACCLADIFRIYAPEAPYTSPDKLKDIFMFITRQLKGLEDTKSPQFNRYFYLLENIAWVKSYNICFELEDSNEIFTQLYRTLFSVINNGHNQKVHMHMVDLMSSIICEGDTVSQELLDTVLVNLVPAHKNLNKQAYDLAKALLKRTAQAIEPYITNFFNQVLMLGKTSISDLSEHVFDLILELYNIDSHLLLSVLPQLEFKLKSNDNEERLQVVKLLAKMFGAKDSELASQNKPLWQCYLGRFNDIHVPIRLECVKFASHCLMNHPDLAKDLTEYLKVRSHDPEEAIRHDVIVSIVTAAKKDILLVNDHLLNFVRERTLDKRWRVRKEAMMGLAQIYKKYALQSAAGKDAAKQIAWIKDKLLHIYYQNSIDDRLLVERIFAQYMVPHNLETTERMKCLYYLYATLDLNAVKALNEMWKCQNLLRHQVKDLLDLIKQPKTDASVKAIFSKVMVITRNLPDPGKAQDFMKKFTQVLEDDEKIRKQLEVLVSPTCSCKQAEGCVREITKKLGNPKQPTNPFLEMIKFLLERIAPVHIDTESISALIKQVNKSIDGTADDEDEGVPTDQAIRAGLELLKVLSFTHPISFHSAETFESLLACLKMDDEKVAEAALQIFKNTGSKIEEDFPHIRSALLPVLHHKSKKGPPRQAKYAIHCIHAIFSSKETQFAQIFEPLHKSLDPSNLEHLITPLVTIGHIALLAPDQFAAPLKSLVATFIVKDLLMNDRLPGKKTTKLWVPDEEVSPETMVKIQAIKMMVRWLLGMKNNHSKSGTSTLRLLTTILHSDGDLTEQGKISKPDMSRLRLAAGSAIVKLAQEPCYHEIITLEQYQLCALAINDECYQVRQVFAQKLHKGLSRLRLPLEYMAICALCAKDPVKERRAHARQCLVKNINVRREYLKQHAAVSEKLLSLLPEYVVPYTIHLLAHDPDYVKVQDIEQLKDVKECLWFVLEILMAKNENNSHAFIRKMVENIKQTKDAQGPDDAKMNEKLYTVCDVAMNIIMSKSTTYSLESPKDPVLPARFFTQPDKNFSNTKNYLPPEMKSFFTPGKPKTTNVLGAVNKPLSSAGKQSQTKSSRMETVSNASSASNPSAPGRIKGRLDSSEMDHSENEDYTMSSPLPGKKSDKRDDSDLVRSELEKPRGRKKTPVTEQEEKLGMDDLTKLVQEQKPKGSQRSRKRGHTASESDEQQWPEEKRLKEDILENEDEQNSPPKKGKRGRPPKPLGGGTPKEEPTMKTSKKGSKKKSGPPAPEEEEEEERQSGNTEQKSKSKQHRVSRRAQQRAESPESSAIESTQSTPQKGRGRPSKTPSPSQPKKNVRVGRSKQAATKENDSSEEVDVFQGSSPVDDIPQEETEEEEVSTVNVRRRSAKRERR
Assay: pull-down

binding result: binds
B1: His6-SUMO3-sororin (natural protein)
chain: MSGRRTRSGGAAQRSGPRAPSPTKPLRRSQRKSGSELPSILPEIWPKTPSAAAVRKPIVLKRIVAHAVEVPAVQSPRRSPRISFFLEKENEPPGRELTKEDLFKTHSVPATPTSTPVPNPEAESSSKEGELDARDLEMSKKVRRSYSRLETLGSASTSTPGRRSCFGFEGLLGAEDLSGVSPVVCSKLTEVPRVCAKPWAPDMTLPGISPPPEKQKRKKKKMPEILKTELDEWAAAMNAEFEAAEQFDLLVE
